Test results as given in ChEMBL document CHEMBL4823296, “NMR-Guided Design of Potent and Selective EphA4 Agonistic Ligands” (J Med Chem, 2021).

Sequences of proteins named here, by UniProt entry; tags and fusion partners are left off.
UniProt P54764, whole entry: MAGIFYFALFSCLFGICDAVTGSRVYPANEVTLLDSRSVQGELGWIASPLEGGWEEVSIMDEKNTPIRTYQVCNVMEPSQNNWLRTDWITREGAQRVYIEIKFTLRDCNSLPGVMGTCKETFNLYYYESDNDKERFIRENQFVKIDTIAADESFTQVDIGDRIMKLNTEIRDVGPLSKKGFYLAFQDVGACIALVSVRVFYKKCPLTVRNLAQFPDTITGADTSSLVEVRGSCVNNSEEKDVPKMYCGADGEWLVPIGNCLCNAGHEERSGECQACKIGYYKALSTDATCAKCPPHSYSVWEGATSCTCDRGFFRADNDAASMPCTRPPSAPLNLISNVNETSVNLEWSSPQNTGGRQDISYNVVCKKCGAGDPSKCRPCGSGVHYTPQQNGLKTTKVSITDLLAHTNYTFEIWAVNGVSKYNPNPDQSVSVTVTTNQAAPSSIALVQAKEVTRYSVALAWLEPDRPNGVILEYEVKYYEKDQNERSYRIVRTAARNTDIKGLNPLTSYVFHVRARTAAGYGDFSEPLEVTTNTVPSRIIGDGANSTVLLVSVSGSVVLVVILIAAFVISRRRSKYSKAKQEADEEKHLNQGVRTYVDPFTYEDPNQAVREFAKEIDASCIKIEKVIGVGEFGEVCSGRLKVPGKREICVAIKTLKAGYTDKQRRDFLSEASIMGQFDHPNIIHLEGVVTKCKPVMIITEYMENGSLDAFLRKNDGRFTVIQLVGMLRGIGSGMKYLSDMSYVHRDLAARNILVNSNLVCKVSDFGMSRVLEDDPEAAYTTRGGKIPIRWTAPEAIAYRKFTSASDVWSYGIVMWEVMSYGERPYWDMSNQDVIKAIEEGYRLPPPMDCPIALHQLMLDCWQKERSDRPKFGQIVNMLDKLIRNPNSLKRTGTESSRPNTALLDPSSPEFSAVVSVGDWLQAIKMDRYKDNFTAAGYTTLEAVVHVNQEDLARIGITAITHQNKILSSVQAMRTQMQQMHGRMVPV

Target: Ephrin type-A receptor 4 (Homo sapiens, UniProt P54764)
Assay: Binding affinity to N-terminal His tagged EphA4 LBD (unknown origin) (29 to 209 residues) expressed in Rosetta-Gami B(DE3) cells by isothermal titration calorimetry

COc1ccc2[nH]cc(CCNC(=O)[C@H](Cc3ccncc3)NC(=O)[C@H](Cc3ccc(Cl)cc3)NC(=O)[C@H](Cc3c[nH]c4ccc(O)cc34)NC(=O)CCCN)c2c1
Kd: 400 nM
